Results reported in patent US20100297123A1, “COMBINATION THERAPY TO INHIBIT T CELL EFFECTOR FUNCTION” (priority 2009, published 2010).

Experiments:
Type in all cases: cell-based
[1] = test system: STAT5 phosphorylation (Tyr694/699); test: Phospho-STAT5 immunoblot, human naive CD4 T cells; conditions: 48 h stimulation (anti-CD3/APC for CTLA4-Ig; anti-CD3/28 for rapamycin)
Description: (§1) Isolation and stimulation of human naive CD4^+ CD45RA^+ T cells. Human peripheral blood mononucleated cells from buffy coats of different donors were obtained from the Stanford Blood Center under Stanford University Institutional Review Board approval. Buffy coats were separated into leukocytes using Ficoll-Paque Plus (GE Health Sciences). T cells were prepared using a RosetteSep Human CD4 T Cell Enrichment (Stem Cell Technologies) followed by a Naive CD4^+ T cell Isolation Kit along using LS MACS columns (Miltenyi Biotec). Negatively selected CD4+CD45RA+CD45RO-CD25-T cells were isolated at 95-99% purity as confirmed by flow cytometry using anti-CD4-FITC (OKT4; eBioscience) and anti-CD45RA-PE (HI100; eBioscience) Ab. CD4^+ CD45RA^+ T cells (5×10^3) were stimulated in 96-well U-bottom plates with equal numbers of Dynabeads CD3/28 T Cell Expander (Invitrogen) or plate-bound anti-CD3 at 1.0 μg/ml with mitomycin C (Sigma-Aldrich) inactivated APC (anti-CD3/APC). Rapamycin (Sigma-Aldrich) was used at a concentration of 100 nM, and CTLA4-Ig (Abatacept, Bristol-Myers Squibb) was used at a concentration of 10 μg/ml. Agonist anti-CD28 Ab was used at 1.0 μg/ml (CD28.2; eBioscience). Anti-IL-2 Ab (5334; eBioscience) was used at a concentration of 10 μg/ml. Recombinant human IL-2 (PeproTech) was used at a concentration of 10 ng/ml. […]

mouse naive CD4 T cells = test: CFSE cell division assay of mouse naive CD4 T cells; conditions: anti-CD3/28 stimulation, CFSE profiles after 3 days
Excerpt: Isolation and stimulation of mouse CD4 T cells. Spleen and lymph nodes were harvested from naive mice and homogenized through a strainer. RBC were lysed from the suspension using red blood cell lysing buffer (Sigma-Aldrich). Lymphocytes were isolated by density centrifugation using Lympholyte-M (Cedarlane Laboratories). CD4+ T cells were sorted via negative selection using an AutoMACS sorter (Miltenyi Biotec). BALB/c CD4+ T cells (5×103) were stimulated in 96-well U-bottom plates with equal numbers of polystyrene latex beads (Interfacial Dynamics) coated with 1.0 μg/ml anti-CD3 (145-2C11; eBioscience) and 0.5 μg/ml anti-CD28 (37.51; eBioscience). For DO11 T cells, 5×10^3 DO11 CD4+ T cells were stimulated in 96-well U-bottom plates with 104 APC and 50 ng/ml peptide OVA323-339 (pOVA). Rapamycin (Sigma-Aldrich) was used at a concentration of 100 nM. CTLA4-Ig (Abatacept; Bristol-Myers Squibb) was used at a concentration of 10 μg/ml. […]
(§2) Proliferation and cell division assays. […] Filters were wetted with Betaplate Scintillation fluid (PerkinElmer) and counts per minute read on a 1205 Betaplate Liquid Scintillation Counter (Wallac). […]
Shown in FIG. 12A, naïve CD4 T cells were labeled with CFSE, a dye that dilutes out with successive cell divisions. The naïve CD4 T cells were stimulated with anti-CD3/28 and the indicated drug(s) and CFSE profiles assessed after 3 days. […]

[2] = test system: human naive CD4+ CD45RA+ T cells; test: Proliferation assay of human naive CD4+CD45RA+ T cells
Description: as §1, with “eBioscience).” for “eBioscience). Anti-IL-2 Ab (5334; eBioscience) was used at a concentration of 10 μg/ml. Recombinant human IL-2 (PeproTech) was used at a concentration of 10 ng/ml.”
as §2

Cyclin D3 = Cyclin D3 immunoblot, human naive CD4 T cells; conditions: 48 h stimulation (anti-CD3/APC for CTLA4-Ig; anti-CD3/28 for rapamycin)
Description: as §1

GRAIL = GRAIL immunoblot, human naive CD4 T cells; conditions: 48 h stimulation (anti-CD3/APC for CTLA4-Ig; anti-CD3/28 for rapamycin)
Description: as §1

Kip1/p27 = Kip1/p27 immunoblot, human naive CD4 T cells; conditions: 48 h stimulation (anti-CD3/APC for CTLA4-Ig; anti-CD3/28 for rapamycin)
Description: as §1

Otub1 = Otub1 immunoblot, human naive CD4 T cells; conditions: 48 h stimulation (anti-CD3/APC for CTLA4-Ig; anti-CD3/28 for rapamycin)
Description: as §1

[3] = test system: Akt phosphorylation (Ser473); test: Phospho-Akt immunoblot, human naive CD4 T cells; conditions: 48 h stimulation (anti-CD3/APC for CTLA4-Ig; anti-CD3/28 for rapamycin)
Description: as §1

mTOR = mTOR activity by phospho-S6K1 and phospho-4E-BP1 immunoblots, human naive CD4 T cells; conditions: 48 h stimulation (anti-CD3/APC for CTLA4-Ig; anti-CD3/28 for rapamycin)

| Substance | phosphorylation of STAT5 [1] | cell division / proliferation by CFSE dilution (mouse naive CD4 T cells) | proliferation of human naive CD4+ CD45RA+ T cells ([2]; anti-CD3/APC stimulation for CTLA4-Ig 10 μg/ml, anti-CD3/28 beads for rapamycin 100 nM) | Cyclin D3 level (Cyclin D3) | GRAIL protein expression (GRAIL) | Kip1/p27 level (Kip1/p27) | Otub1 protein expression (Otub1) | phosphorylation of Akt [3] | mTOR activity (phosphorylation of S6K1 and 4E-BP1) (mTOR) | proliferation when added to CTLA4-Ig containing cultures ([2]; anti-CD3/APC stimulation, CTLA4-Ig present, agonist anti-CD28 Ab or exogenous IL-2 added) |
| --- | --- | --- | --- | --- | --- | --- | --- | --- | --- | --- |
| CTLA4-Ig: CTLA4-Ig (Abatacept; Bristol-Myers Squibb), blocks CD28 costimulation | decrease in phosphorylation of STAT5 | inhibition of proliferation | inhibited | diminished cyclin D3 | sustained GRAIL expression | increased Kip1/p27 | blocked Otub1 expression | decreased phosphorylation of Akt | down-regulated | – |
| exogenous IL-2: Recombinant human IL-2 (PeproTech) | – | – | – | – | – | – | – | – | – | reversed the inhibition of proliferation |
